The data set can be described thus: Solubility in chloroform / preparation of chloroform coating liquid. Format: physicochemical. As to conditions: 1 weight part compound in 99 weight parts of chloroform. The protocol: The solubility of these compounds in chloroform was measured.
Following stirring and dissolution, a liquid-crystal composition coating liquid was obtained. Each of the coating liquids was then coated on an alignment film that had been formed on a glass substrate and had been rubbed. Subsequently, the chloroform was allowed to dry naturally at room temperature, yielding individual light absorption anisotropic films. The polyvinylalcohol indicated below was employed as the alignment film.

This note sets out measurements from patent US9011988B2, “Liquid-crystal compound, liquid-crystal composition, light absorption anisotropic film, and liquid-crystal display device” (Fujifilm Corporation, priority 2010, dated 2015).

Turning to `CCCCCCOc1ccc(N=Nc2ccc(C=Cc3cc(OC)c(C=Cc4ccc(N=Nc5ccc(OCCCCCC)cc5)cc4)cc3OC)cc2)cc1` [A-34], the “preparation of coating liquid” value is reported as “impossible to prepare a coating liquid”.
